Literature values, collected in patent publication US11065330B2, “Induction of antigen-specific tolerance by peripheral phagocytosis” (PLS-Design GmbH, priority 2014, dated 2021).

Conditions: 45 mg CMS/kg/day in two divided doses, one to two weeks

## choline magnesium trisalicylate [CMS]
  steady state serum salicylate level, mean value: 213 ± 10 mg/L
